From publication PMC10355216, “The C-terminal tail of CSNAP attenuates the CSN complex” (Life Science Alliance, 2023)

Tested on: CSN^ΔCSNAP complex
Assay: Peptide array screen of C-CSNAP peptides with rCSN^ΔCSNAP;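 further: Array-printed peptides incubated with 0.5 µM CSN^ΔCSNAP, bound complex detected by anti-CSN3 antibody plus HRP-linked secondary, spot intensity expressed relative to the parent reference peptide spot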
Format: binding
Details: average of 5 experiments
Method: The same array was also reacted with the CSN^ΔCSNAP complex (Fig S3A–D and Table S2). […] Taken together, the peptide array analysis not only provided insight into the optimal C-CSNAP peptide characteristics but also validated and supported the predicted model.
Figure S3. Peptide array screen of modified C-CSNAP peptides. C-CSNAP peptide and its derivatives were printed on a microarray. The array was blocked and incubated with or without the CSN∆CSNAP complex and probed using an anti-CSN3 antibody and HRP-conjugated secondary antibody. To assess non-specific binding of the antibodies to the array, anti-CSN3 and anti-GAR-HRP were used without the addition of the COP9 signalosome complex (CSN). Signal intensity of each spot was measured and normalized to the intensity of the spot of C-CSNAP (A1). Measured values for each spot were averaged from six arrays and plotted with standard errors SEM. […] In (C), results for spot B22 was disregarded because of non-specific CSN binding to this spot. (A) A representative image of the peptide array (left) and the background (right). […]
Supplementary file : Table S2 Peptide array densitometry data using rCSN^ΔCSNAP. […] Intensity values are normalized to the intensity of the 16AA C-CSNAP peptide (A1) on each array from three independent experiments in duplicates, and averages from the six replicates are calculated with SEM. […]

LL-Aib-LL-Aib-LL-Aib-GGG-DFFNDFEDLFDDDDIQ [Position H14, C-CSNAP with N-terminal 3x(LL-Aib)-GGG]
Average fold change (intensities as fold of C-CSNAP (A1)) (peptide array, rCSN^ΔCSNAP, left and right spots): 1.3512 fold

PAVDEMFPEGAGPYVDLDEAGGSTGLLMDLAANEKAVHADFFNDFEDLFDDDDIQ [Position B16, CSNAP residues 3-57]
Average fold change (peptide array with rCSN^ΔCSNAP, left and right (n = 10), fold of C-CSNAP (A1)): 1.3540 fold
